Data as given in PubChem BioAssay (Tox21).
Several values for one entry are separate records, joined by “and”; a condition that tells them apart may be missing. Identical values can stand only once. The entries are a selection whose mix differs from that of the whole data set. Inconclusive results are not listed. Activity calls are given as the source filed them. Calls follow the shape of the dose curve; as a rule, active = well fitted inhibition curve with a large enough effect in the signal ratio in the repeat runs (not every such curve was filed as active); inconclusive = weak or mixed curves, or effect the other way; inactive = flat fitted curve, though single readings scatter; the % refers to the signal ratio.

assay: cAMP Responsive Elements (CRE) small molecule antagonists, cell-based qHTS assay (AID 1963591); conditions: CRE-bla HEK293T, beta-lactamase FRET ratio; at 42.4 µM (top of the series)
From the text: U.S. Tox21 Program National Center for Advancing Translational Sciences [NCATS] Division of Preclinical Innovation [DPI] U.S. Environmental Protection Agency [EPA] National Institutes of Environmental Health Sciences [NIEHS] National Toxicology Program [NTP] U.S. Food and Drug Administration [FDA] Tox21 Assay Overview: CREB (cyclic-AMP Responsive Element Binding Protein) is a cellular transcription factor. It binds to certain DNA sequences called cAMP Responsive Elements (CRE) and regulates the transcription of the genes. […] This cell line can be used to find agonists/antagonists of the cyclic AMP signaling pathway. The activation of the report gene under culture conditions can be detected by fluorescence intensity. This cell line has been used to screen the Tox21 10K compound library to […].
Tox21 Assay Protocol Summary: CRE-bla Hek 293T cells were suspended in assay medium (DMEM containing 10% dialyzed FBS, 0.1 mM NEAA, 1 mM sodium pyruvate and 25 mM HEPES) and dispensed at 2,000 cells/4 uL /well into 1536-well black wall/clear bottom plates using a Multidrop Combi (ThermoFisher Scientific, Waltham, MA) dispenser. After the assay plates were incubated at 37 C/5% CO2 for 18 hrs, 23 nL of compounds dissolved in DMSO, positive controls or DMSO only was transferred to the assay plate by a pintool workstation (Kalypsys, San Diego, CA), followed by addition of 1 […] uL of 1.25uM NKH477 (0.25 uM as final concentration) in assay medium using a Flying Reagent Dispenser (Aurora Discovery, San Diego, CA). The plates were incubated at 37 C and 5% CO2 for 3 hrs. Then 1 uL of LiveBLAzer B/G FRET substrate (Invitrogen, Carlsbad, CA) was added to each well using Bioraptr Flying Reagent Dispenser (FRD, Aurora Discovery, San Diego, CA). The plates were incubated at room temperature for 2 h.
% is scaled to controls: 0 for no effect and ±100 for the full control effect.

SMILES | activity change, negative = inhibition
OCCSCCO | inactive: 9.8%
C/C1=C2N=C(/C=C3N=C(/C(C)=C4\[N-][C@@](C)([C@@H]5N=C1[C@](C)(CCC(=O)NC[C@@H](C)OP(=O)([O-])O[C@H]1[C@@H](O)[C@@H](n6cnc7cc(C)c(C)cc76)O[C@@H]1CO)[C@H]5CC(N)=O)[C@@](C)(CC(N)=O)[C@@H]4CCC(N)=O)[C@@](C)(CC(N)=O)[C@@H]\3CCC(N)=O)C(C)(C)[C@@H]/2CCC(N)=O.[C-]#N.[Co+3] | inactive: -1.89%
CCOP(=O)(CC)Oc1ccc([N+](=O)[O-])cc1 (stereo not given) | inactive: -10.5%

same assay, conditions: CRE-bla HEK293T, beta-lactamase FRET ratio; at 92.4 µM (top of the series)

SMILES | activity change, negative = inhibition
O=[N+]([O-])OCC(CO[N+](=O)[O-])(CO[N+](=O)[O-])CO[N+](=O)[O-] | inactive: -11.8%
[NH4+].[O-][Cl+3]([O-])([O-])[O-] | inactive: -0.0474% and inactive: 16.8%
O=[N+]([O-])[O-].[NH4+] | inactive: 1.54% and inactive: -4.37%
COP(C)(=O)OC | inactive: -2.72% and inactive: 2.6%
N#CBr | inactive: -4.86%
Cc1ccc([N+](=O)[O-])cc1[N+](=O)[O-] | inactive: 4.61% and inactive: -13.9%
CCOP(=O)(CC)OCC | inactive: -4.18%
COc1ccc([N+](=O)[O-])cc1[N+](=O)[O-] | inactive: -0.659%
OCCSCCO | inactive: 4.55%
CC(C)OP(C)(=O)OC(C)C | inactive: -14.9% and inactive: -10.3%
Cc1c([N+](=O)[O-])cccc1[N+](=O)[O-] | inactive: 8.79% and inactive: -1.59%
Nc1cc([N+](=O)[O-])cc([N+](=O)[O-])c1O | inactive: 14.4%
O=[N+]([O-])c1cccc([N+](=O)[O-])c1 | inactive: 2.29%
N=C(N)N[N+](=O)[O-] | inactive: -0.378%
CP(=O)(O)OCCC[Si](O)(O)O | inactive: 2.16%
CC(C)N(CCO)C(C)C | inactive: 2.56%
CN(C)CCCl | inactive: -0.727%
